This test deals with 5-HT2. Put plainly: Binding test 5-HT2. The settings on record: at 3.6 10^-5 M. An excerpt:
Compounds A and Compounds B of the present invention, which are examples of endo-tropyl and quinuclidylamide of 7-azaindolyl-3-carboxylic acid respectively have been studied "in vitro" for their interaction with the 5-HT1, 5-HT2 and 5-HT3 receptors.
Binding Test: 5-HT1 5-HT2
% of inhibition at 3.6 10^-5 M

Structures are written as SMILES.

For the molecule `Cc1nccn1CC1CCc2c(c3ccccc3n2C)C1=O` (racemic) [Ondasetron, reference compound], the “% of inhibition 5-HT2” value came out at 21.7%.

These data come from patent publication US5750536A, “Tropyl 7-azaindol-3-ylcarboxyamides as antitussive agent” (priority 1993, dated 1998).
